We go through 2 molecules from ChEMBL document CHEMBL1143275, “Positive allosteric modulators of the metabotropic glutamate receptor subtype 4 (mGluR4). Part II: Challenges in hit-to-lead” (Bioorg Med Chem Lett, 2009).

Sequences of proteins named here, by UniProt entry; tags and fusion partners are left off. A change or cut given only in a name is not applied to a line headed by its entry.
UniProt Q14833: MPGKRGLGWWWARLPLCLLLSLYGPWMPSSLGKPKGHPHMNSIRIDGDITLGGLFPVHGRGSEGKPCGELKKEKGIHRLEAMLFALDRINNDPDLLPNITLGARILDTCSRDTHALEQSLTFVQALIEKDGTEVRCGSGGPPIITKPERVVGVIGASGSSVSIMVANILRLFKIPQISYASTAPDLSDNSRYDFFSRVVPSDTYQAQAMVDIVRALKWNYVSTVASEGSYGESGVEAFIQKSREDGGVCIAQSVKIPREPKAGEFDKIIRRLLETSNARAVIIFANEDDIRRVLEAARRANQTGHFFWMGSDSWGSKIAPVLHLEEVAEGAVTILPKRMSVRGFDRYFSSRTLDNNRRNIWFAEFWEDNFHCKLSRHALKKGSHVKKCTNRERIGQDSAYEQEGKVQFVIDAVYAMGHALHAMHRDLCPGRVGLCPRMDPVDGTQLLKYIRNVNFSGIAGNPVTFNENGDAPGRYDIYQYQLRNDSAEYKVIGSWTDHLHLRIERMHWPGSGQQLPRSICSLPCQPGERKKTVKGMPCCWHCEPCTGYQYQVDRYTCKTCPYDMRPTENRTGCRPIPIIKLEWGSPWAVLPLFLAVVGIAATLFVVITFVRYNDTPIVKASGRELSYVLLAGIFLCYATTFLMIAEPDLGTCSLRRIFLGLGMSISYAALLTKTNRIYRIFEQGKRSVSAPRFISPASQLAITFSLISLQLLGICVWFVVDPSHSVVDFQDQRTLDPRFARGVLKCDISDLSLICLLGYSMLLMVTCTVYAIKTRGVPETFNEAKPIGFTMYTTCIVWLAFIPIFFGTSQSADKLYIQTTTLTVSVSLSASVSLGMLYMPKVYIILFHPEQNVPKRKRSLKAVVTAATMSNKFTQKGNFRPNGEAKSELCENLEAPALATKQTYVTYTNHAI

The target of this assay is Metabotropic glutamate receptor 4 (Homo sapiens, UniProt Q14833). The assay can be described thus: Activation of human mGluR4 expressed in CHO cells coexpressing Gqi5 protein assessed as fold shifting of glutamate-induced response at 30 uM. It is filed as cell-based.

As to `O=C(Nc1ccccc1)[C@]12C[C@H]1/C(=N\O)c1ccccc1O2`, the fold change (FC) was determined as 11.8. On to `O=C(O)[C@H]1CCCC[C@H]1C(=O)Nc1cc(Cl)cc(Cl)c1`, for which the fold change (FC) stood at 6.4.
